# Test results reported in patent publication US9662344B2, “Carnitine retention” (The University of Nottingham, priority 2003, dated 2017).
# Like-named read-outs stand apart in the source and are kept apart here.
# Tests used:
# [1] = 6 h, with 5 h iv 60 mM L-carnitine
# [2] = Example II: plasma total carnitine during L-carnitine infusion with insulin clamp; type: in vivo, men; conditions: 60 mM L-carnitine infusion
# [3] = 6 h insulin infusion with 5 h iv 60 mM L-carnitine infusion
substance,measurement,setting,value
insulin,muscle total carnitine concentration,"[1]; highest insulin infusion rate (105 mU·m^−2·min^−1), p<0.05",significant increase
same,muscle carnitine accumulation,[1]; lowest insulin infusion rate (5 mU·m^−2·min^−1),no effect
same,"plasma TC concentration, 105 vs 5 mU·m^−2·min^−1 insulin infusion","[2]; t=240 (p<0.05), t=300 (p<0.05), t=360 (p<0.01)",significantly lower
same,"plasma TC concentration, 105 vs 30 mU·m^−2·min^−1 insulin infusion",[2]; t=360 (p<0.05),significantly lower
same,steady-state serum insulin concentration,"intravenous insulin infusion 5 mU·m^−2·min^−1, after 60 min equilibration",10.3±0.3 mU/1
same,steady-state serum insulin concentration,"intravenous insulin infusion 30 mU·m^−2·min^−1, after 60 min equilibration",47.8±1.3 mU/1
same,steady-state serum insulin concentration,"intravenous insulin infusion 55 mU·m^−2·min^−1, after 60 min equilibration",85.6±2 mU/1
same,steady-state serum insulin concentration,"intravenous insulin infusion 105 mU·m^−2·min^−1, after 60 min equilibration",198.6±4.8 mU/1
same,"plasma carnitine concentration, 105 vs 5 mU·m^−2·min^−1 insulin clamp",[3],significantly lower
